In patent US11938164B2, “Exosome-based cancer assays” (TRUSTEES OF BOSTON UNIVERSITY, priority 2021, dated 2024):

Tested on: primary adipocytes
Test: Glucose uptake assay of primary adipocytes (induction of insulin resistance)
Type: cell-based, human
Conditions: TNFα 250 pM, 24 h, 10 nM insulin
Procedure: Treatment of mature, fully differentiated, primary adipocytes ex vivo with low concentrations (250 pM) of the pro-inflammatory cytokine tumor necrosis factor alpha (TNFa) is well established to ablate insulin-sensitive glucose transport and induce phosphorylation of Akt and other molecular changes. Human primary adipocytes were treated with 250 pM recombinant human TNFa (Abcam, ab9642), and 3T3-L1 adipocytes were treated with 1 nM recombinant ouse TNFa (Abcam, ab9740), overnight to induce insulin resistance.
To measure glucose uptake in cells, the Glucose Uptake-Glo™ Assay (J1341, Promega) was used as outlined in the manufacturer's protocol. This is a plate-based, bioluminescent method for measuring glucose uptake by living cells, based on the detection of 2-deoxyglucose-6-phosphate (2DG6P).

## TNFα: recombinant human tumor necrosis factor alpha (Abcam, ab9642)
  insulin-responsive glucose transport (fluorimetric glucose uptake assay): converted IS to IR adipocytes, unable to transport glucose in response to 10 nM insulin
